Biological target: calcineurin (Bos taurus, UniProt P48452+P62942+P63099)
Assay type: biochemical

Protein sequences, listed by entry. Tags and fused reporters are not part of them. Residues count along the entry.
UniProt P63099, 2-170: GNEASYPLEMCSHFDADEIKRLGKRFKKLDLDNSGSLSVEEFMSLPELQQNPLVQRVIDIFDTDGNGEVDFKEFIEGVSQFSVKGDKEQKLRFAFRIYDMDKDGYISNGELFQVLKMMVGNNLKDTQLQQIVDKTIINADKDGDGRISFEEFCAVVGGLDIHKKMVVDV

- IC50: 0.108 µM
SMILES: CC[C@@H]1/C=C(\C)C[C@H](C)C[C@H](OC)[C@H]2O[C@@](O)(C(=O)C(=O)N3CCCC[C@H]3C(=O)O[C@H](/C(C)=C/[C@@H]3CC[C@@H](O)[C@H](OC)C3)[C@H](C)[C@@H](O)CC1=O)[C@H](C)C[C@@H]2OC [L-683,590]

Source: article PMC2119351 (The Journal of Experimental Medicine, 1992)
